Consider 1 substance from patent US20100047228.

Data set [1] deals with full-length plasminogen.
The test system of data set [2] is delta-plasminogen.

For urokinase, in data set [1], the Km (µM), urokinase activation was determined as 1.2 µM; the kcat (min^-1), urokinase activation is 2.3 min⁻¹; the kcat/Km (µM^-1min^-1), urokinase activation came out at 1.92 µM⁻¹ min⁻¹. In addition, in data set [2], the Km (µM), urokinase activation came out at 30 µM; the “Km for urokinase activation, fold against plasminogen” value is given as “approximately 30-fold higher than for plasminogen”; the kcat (min^-1), urokinase activation is 80 min⁻¹; the kcat/Km (µM^-1min^-1), urokinase activation stood at 2.67 µM⁻¹ min⁻¹.
